Permeability data for macrocyclic peptides

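The data file gives no further conditions (lipid, pH, time, direction or concentration), and values from different papers need not be comparable. Other peptides of the study may be missing here. Entries at the database's floor value (log10 P of -10) are not listed.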

PAMPA is the parallel artificial membrane permeability assay, which has no cells and reads passive diffusion.
Values are log10 P with P in cm/s, so -5 is more permeable than -7.

| PAMPA (log10 cm/s) | structure (SMILES) |
|---|---|
| -5.23 | CC(C)C[C@@H]1C(=O)N2CCC[C@H]2C(=O)N(C)[C@H](CC(C)C)C(=O)N[C@@H](Cc2ccccc2)C(=O)N2CCC[C@@H]2C(=O)N[C@@H](C)C(=O)N(C)[C@@H](CC(C)C)C(=O)N1C |
| -6.08 | CC(C)C[C@@H]1NC(=O)[C@H](C)N(C)C(=O)[C@H]2CCCN2C(=O)[C@H](Cc2ccccc2)NC(=O)[C@H](CC(C)C)NC(=O)[C@@H]2CCCN2C(=O)C[C@H](Cc2ccccc2)NC1=O |
| -5.29 | CCCN1CC(=O)N(C)[C@@H](CC(C)C)C(=O)N(C)[C@H](CC(C)C)C(=O)N2CCC[C@@H]2C(=O)N(C)[C@H](CC(C)C)C(=O)N[C@@H](Cc2ccccc2)C(=O)N2CCC[C@H]2C1=O |
| -6.67 | CC(C)C[C@@H]1C(=O)N[C@H](CC(C)C)C(=O)N2CCC[C@@H]2C(=O)N[C@H](CC(C)C)C(=O)N[C@@H](Cc2ccccc2)C(=O)N[C@@H](C)C(=O)N1C |
| -5.19 | CC(C)C[C@@H]1NC(=O)[C@@H](C)N(C)C(=O)[C@H](Cc2ccccc2)NC(=O)[C@@H](CC(C)C)N(C)C(=O)[C@@H]2CCCN2C(=O)[C@@H](CC(C)C)NC1=O |
| -4.90 | CC(C)C[C@@H]1NC(=O)[C@@H]2CCCN2C(=O)[C@@H](CC(C)C)N(C)C(=O)[C@@H](CC(C)C)NC(=O)[C@H](C)N(C)C(=O)[C@H](Cc2ccccc2)NC1=O |
| -5.68 | CC(C)C[C@@H]1NC(=O)[C@@H]2CCCN2C(=O)[C@@H](CC(C)C)N(C)C(=O)[C@H](CC(C)C)NC(=O)[C@H](C)N(C)C(=O)[C@@H]2CCCN2C(=O)[C@H](Cc2ccccc2)NC1=O |
| -5.99 | CC(C)C[C@@H]1NC(=O)[C@H](C)NC(=O)[C@H](Cc2ccccc2)NC(=O)[C@@H](CC(C)C)N(C)C(=O)[C@H]2CCCN2C(=O)C[C@H](Cc2ccccc2)NC1=O |
| -5.60 | CCCN1CC(=O)N[C@@H](CC(C)C)C(=O)N(C)[C@H](CC(C)C)C(=O)N2CCC[C@@H]2C(=O)N[C@H](CC(C)C)C(=O)N[C@@H](Cc2ccccc2)C(=O)N2CCC[C@H]2C1=O |
| -5.29 | CC(C)C[C@H]1C(=O)N(C)[C@@H](CC(C)C)C(=O)N2CCC[C@H]2C(=O)N(Cc2ccccc2)CC(=O)N[C@@H](Cc2ccccc2)C(=O)N2CCC[C@@H]2C(=O)N(C)[C@H](C)C(=O)N1C |
| -5.82 | CC(C)C[C@@H]1C(=O)N(Cc2ccccc2)CC(=O)N2CCC[C@@H]2C(=O)N[C@H](CC(C)C)C(=O)N[C@@H](Cc2ccccc2)C(=O)N2CCC[C@H]2C(=O)N[C@@H](Cc2ccccc2)CC(=O)N1C |
| -5.17 | CC(C)C[C@@H]1C(=O)N[C@@H](Cc2ccccc2)C(=O)N(C)[C@@H](C)C(=O)N[C@H](CC(C)C)C(=O)N(Cc2ccccc2)CC(=O)N2CCC[C@H]2C(=O)N1C |
| -4.92 | CC(C)C[C@@H]1NC(=O)[C@@H](CC(C)C)N(C)C(=O)[C@H](C)NC(=O)[C@H]2CCCN2C(=O)[C@H](Cc2ccccc2)NC(=O)[C@@H](CC(C)C)N(C)C(=O)[C@H]2CCCN2C1=O |
| -5.04 | CC(C)C[C@H]1C(=O)N2CCC[C@H]2C(=O)N(C)[C@@H](CC(C)C)C(=O)N[C@@H](Cc2ccccc2)C(=O)N2CCC[C@@H]2C(=O)N(C)[C@@H](C)C(=O)N(Cc2ccccc2)CC(=O)N1C |
| -5.85 | CCCN1CC(=O)N(C)[C@@H](CC(C)C)C(=O)N[C@H](CC(C)C)C(=O)N2CCC[C@H]2C(=O)N[C@@H](CC(C)C)C(=O)N[C@@H](Cc2ccccc2)C1=O |
| -5.73 | CC(C)C[C@@H]1C(=O)N(C)[C@@H](CC(C)C)C(=O)N2CCC[C@H]2C(=O)N(C)[C@H](CC(C)C)C(=O)N[C@@H](Cc2ccccc2)C(=O)N2CCC[C@H]2C(=O)N(C)[C@@H](C)C(=O)N1C |
| -5.65 | CC(C)C[C@@H]1NC(=O)[C@@H]2CCCN2C(=O)[C@@H](CC(C)C)NC(=O)[C@@H](CC(C)C)N(C)C(=O)C[C@H](Cc2ccccc2)NC(=O)[C@@H]2CCCN2C(=O)[C@H](Cc2ccccc2)NC1=O |
| -6.60 | CC(C)C[C@@H]1C(=O)N[C@@H](Cc2ccccc2)C(=O)N2CCC[C@H]2C(=O)N[C@H](C)C(=O)N[C@H](CC(C)C)C(=O)N(Cc2ccccc2)CC(=O)N2CCC[C@H]2C(=O)N1C |
| -5.89 | CC(C)C[C@@H]1NC(=O)[C@@H](C)NC(=O)[C@H](Cc2ccccc2)NC(=O)CN(Cc2ccccc2)C(=O)[C@H]2CCCN2C(=O)[C@@H](CC(C)C)NC1=O |

The 3 lowest values of PAMPA among the entries above:

structure (SMILES)	PAMPA (log10 cm/s)
CC(C)C[C@@H]1C(=O)N[C@H](CC(C)C)C(=O)N2CCC[C@@H]2C(=O)N[C@H](CC(C)C)C(=O)N[C@@H](Cc2ccccc2)C(=O)N[C@@H](C)C(=O)N1C	-6.67
CC(C)C[C@@H]1C(=O)N[C@@H](Cc2ccccc2)C(=O)N2CCC[C@H]2C(=O)N[C@H](C)C(=O)N[C@H](CC(C)C)C(=O)N(Cc2ccccc2)CC(=O)N2CCC[C@H]2C(=O)N1C	-6.60
CC(C)C[C@@H]1NC(=O)[C@H](C)N(C)C(=O)[C@H]2CCCN2C(=O)[C@H](Cc2ccccc2)NC(=O)[C@H](CC(C)C)NC(=O)[C@@H]2CCCN2C(=O)C[C@H](Cc2ccccc2)NC1=O	-6.08

Data: CycPeptMPDB; original report Townsend et al. 2020, doi:10.26434/chemrxiv.13335941.v1.